From paper PMC4657098, “A Review of the Updated Pharmacophore for the Alpha 5 GABA(A) Benzodiazepine Receptor Model” (International Journal of Medicinal Chemistry, 2015)

Protein sequences, listed by entry. Tags and fused reporters are not part of them. Residues count along the entry.
UniProt P48169, 36-554 limits assumed: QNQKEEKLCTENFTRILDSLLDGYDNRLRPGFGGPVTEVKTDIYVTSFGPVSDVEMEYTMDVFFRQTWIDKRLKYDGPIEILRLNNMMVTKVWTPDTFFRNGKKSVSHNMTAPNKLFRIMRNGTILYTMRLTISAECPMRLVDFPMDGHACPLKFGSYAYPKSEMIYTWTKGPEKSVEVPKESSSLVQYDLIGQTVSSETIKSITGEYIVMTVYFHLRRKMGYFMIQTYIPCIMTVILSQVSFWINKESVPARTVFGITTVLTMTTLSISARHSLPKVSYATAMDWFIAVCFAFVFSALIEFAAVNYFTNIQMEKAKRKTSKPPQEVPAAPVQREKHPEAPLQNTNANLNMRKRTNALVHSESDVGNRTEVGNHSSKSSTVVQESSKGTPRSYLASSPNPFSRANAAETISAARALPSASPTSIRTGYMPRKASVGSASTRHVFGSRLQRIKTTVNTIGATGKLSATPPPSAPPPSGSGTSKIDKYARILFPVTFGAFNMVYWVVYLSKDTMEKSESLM

What was measured:
α6β3γ2 GABAA/BzR = α6β3γ2 GABAA/BzR (Homo sapiens, UniProt P18507+Q16445); test: Competition binding to HEK cell membranes, α6β3γ2; details: read-out: Ki α6
α5β3γ2 GABAA/BzR = α5β3γ2 GABAA/BzR (Homo sapiens, UniProt P18507+P31644); test: Competition binding to HEK cell membranes, α5β3γ2; details: read-out: Ki α5
α4β3γ2 GABAA/BzR = α4β3γ2 GABAA/BzR (Homo sapiens, UniProt P18507+P48169); details: read-out: Ki α4
α3β3γ2 GABAA/BzR = α3β3γ2 GABAA/BzR (Homo sapiens, UniProt P18507+P34903); test: Competition binding to HEK cell membranes, α3β3γ2; details: read-out: Ki α3
α2β3γ2 GABAA/BzR = α2β3γ2 GABAA/BzR (Homo sapiens, UniProt P18507+P47869); test: Competition binding to HEK cell membranes, α2β3γ2; details: read-out: Ki α2
α1β3γ2 GABAA/BzR = α1β3γ2 GABAA/BzR (Homo sapiens, UniProt P14867+P18507); test: Competition binding to HEK cell membranes, α1β3γ2; details: read-out: Ki α1

Question: How did the Ki (α6β3γ2 GABAA/BzR) turn out when `CC(C)(C)c1ccc2[nH]cc3c(=O)n(-c4ccc(Cl)cc4)nc-3c2c1` was run?
Answer: Its Ki is 1000 nM.

Question: With `CCOC(=O)c1ncn2c1CN(C)C(=O)c1cc(Br)ccc1-2` as the compound, how does the Ki (α5β3γ2 GABAA/BzR) read?
Answer: The Ki was 0.7 nM.

Question: Which Ki (α6β3γ2 GABAA/BzR) does the source give for `CC#Cc1ccc2c(c1)C(=O)N(C)Cc1c(C(=O)OCC)ncn1-2` here?
Answer: The Ki was 100 nM.

Question: Which results are given for `CC(C)(C)OC(=O)c1ncn2c1CN=C(c1ccccc1)c1cc(Br)ccc1-2`?
Answer: Ki (α5β3γ2 GABAA/BzR): 10 nM; Ki (α6β3γ2 GABAA/BzR): 2000 nM; Ki (α4β3γ2 GABAA/BzR): 1000 nM

Question: `O=c1c2c[nH]c3cc(Br)ccc3c-2nn1-c1ccccc1` [QH-II-077] was tested. Which Ki (α6β3γ2 GABAA/BzR) did it give?
Answer: The Ki was 4 nM.

Question: And the Ki (α3β3γ2 GABAA/BzR)?
Answer: Its Ki is 0.05 nM.

Question: What about the Ki (α2β3γ2 GABAA/BzR) of the same compound?
Answer: The Ki was 0.08 nM.

Question: And the Ki (α1β3γ2 GABAA/BzR)?
Answer: The Ki was 0.06 nM.

Question: With `CCOC(=O)c1ncc2[nH]c3ccc(O)cc3c2c1COC` as the compound, how does the Ki (α6β3γ2 GABAA/BzR) read?
Answer: The Ki was 3000 nM.

Question: And the Ki (α1β3γ2 GABAA/BzR)?
Answer: Its Ki is 2 nM.

Question: `CN1C(=O)CN=C(c2ccccc2[N+](=O)[O-])c2cc([N+](=O)[O-])ccc21` was tested. Which Ki (α6β3γ2 GABAA/BzR) did it give?
Answer: Its Ki is 10000 nM.

Question: `CCOC(=O)c1ncn2c1CN(C)C(=O)c1cc(C#N)ccc1-2` was tested. Which Ki (α6β3γ2 GABAA/BzR) did it give?
Answer: Its Ki is 1000 nM.

Question: Which Ki (α1β3γ2 GABAA/BzR) does the source give for `CCOC(=O)c1ncn2c1CN(C)C(=O)c1cc(-c3ccccc3)ccc1-2` here?
Answer: The Ki was 7 nM.

Question: `C[Si](C)(C)C#Cc1ccc(-n2nc3c4ccccc4[nH]cc-3c2=O)cc1` was tested. Which Ki (α6β3γ2 GABAA/BzR) did it give?
Answer: Its Ki is 1000 nM.

Question: What about the Ki (α1β3γ2 GABAA/BzR) of the same compound?
Answer: The Ki was 3 nM.

Question: Which Ki (α3β3γ2 GABAA/BzR) does the source give for `CC(C)(C)c1ccc2[nH]cc3c(=O)n(-c4ccc(Br)cc4)nc-3c2c1` here?
Answer: Its Ki is 20 nM.

Question: `CCOC(=O)c1ncn2c1CN(C)C(=O)c1cc(-c3ccco3)ccc1-2` was tested. Which Ki (α5β3γ2 GABAA/BzR) did it give?
Answer: The Ki was 0.6 nM.

Question: `CCOC(=O)c1ncn2c1CN(C)C(=O)c1cc(OC)ccc1-2` was tested. Which Ki (α6β3γ2 GABAA/BzR) did it give?
Answer: Its Ki is 40 nM.

Question: How did the Ki (α6β3γ2 GABAA/BzR) turn out when `CCOC(=O)c1ncn2c1CN(C)C(=O)c1ccccc1-2` was run?
Answer: Its Ki is 500 nM.

Question: For `C[Si](C)(C)C#Cc1ccc2c3nn(-c4ccccc4)c(=O)c-3c[nH]c2c1`, which Ki (α6β3γ2 GABAA/BzR) is on record?
Answer: The Ki was 100 nM.

Question: For `C#Cc1ccc2c(c1)C(c1ccccc1Cl)=NCc1nnc(C)n1-2`, which Ki (α6β3γ2 GABAA/BzR) is on record?
Answer: Its Ki is 5000 nM.
